Measured values taken from US20070232520A1 (YEDA RESEARCH AND DEVELOPMENT, published 2007).

How the values were obtained:
[1] = biological target: T1, FLAG-55.11 (residues 309-900 of 55.11 fused at the N terminus with the FLAG octapeptide) (human, UniProt Q13200 318-899); test: in vitro pull-down: 35S-labelled protein from HeLa lysate on GST on glutathione-agarose beads, SDS-PAGE, autoradiography
T1 construct: Expressed in transfected HeLa cells and labelled with [35S]Met and [35S]Cys; not shown: FLAG octapeptide (Eastman Kodak)
T1 sequence: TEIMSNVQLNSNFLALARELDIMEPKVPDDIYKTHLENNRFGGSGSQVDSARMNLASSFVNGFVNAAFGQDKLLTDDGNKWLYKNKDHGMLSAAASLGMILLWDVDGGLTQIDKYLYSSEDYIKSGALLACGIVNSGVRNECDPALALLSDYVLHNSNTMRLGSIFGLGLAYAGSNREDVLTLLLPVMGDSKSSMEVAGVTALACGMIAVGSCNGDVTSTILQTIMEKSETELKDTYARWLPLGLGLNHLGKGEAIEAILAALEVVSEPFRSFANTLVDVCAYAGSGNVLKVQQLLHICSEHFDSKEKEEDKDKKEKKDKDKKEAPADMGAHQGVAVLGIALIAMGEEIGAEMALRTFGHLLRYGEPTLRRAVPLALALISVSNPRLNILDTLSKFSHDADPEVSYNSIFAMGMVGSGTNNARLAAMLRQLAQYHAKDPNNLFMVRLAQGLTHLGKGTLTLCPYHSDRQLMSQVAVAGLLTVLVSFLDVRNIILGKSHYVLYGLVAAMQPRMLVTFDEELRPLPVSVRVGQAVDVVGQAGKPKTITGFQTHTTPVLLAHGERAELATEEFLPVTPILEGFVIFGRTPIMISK

[2] = biological target: T2, full-length 55.11 protein (55.11-full) (human, UniProt Q13200 11-899, limits assumed); test: as above
T2 construct: Expressed in transfected HeLa cells and labelled with [35S]Met and [35S]Cys
T2 sequence: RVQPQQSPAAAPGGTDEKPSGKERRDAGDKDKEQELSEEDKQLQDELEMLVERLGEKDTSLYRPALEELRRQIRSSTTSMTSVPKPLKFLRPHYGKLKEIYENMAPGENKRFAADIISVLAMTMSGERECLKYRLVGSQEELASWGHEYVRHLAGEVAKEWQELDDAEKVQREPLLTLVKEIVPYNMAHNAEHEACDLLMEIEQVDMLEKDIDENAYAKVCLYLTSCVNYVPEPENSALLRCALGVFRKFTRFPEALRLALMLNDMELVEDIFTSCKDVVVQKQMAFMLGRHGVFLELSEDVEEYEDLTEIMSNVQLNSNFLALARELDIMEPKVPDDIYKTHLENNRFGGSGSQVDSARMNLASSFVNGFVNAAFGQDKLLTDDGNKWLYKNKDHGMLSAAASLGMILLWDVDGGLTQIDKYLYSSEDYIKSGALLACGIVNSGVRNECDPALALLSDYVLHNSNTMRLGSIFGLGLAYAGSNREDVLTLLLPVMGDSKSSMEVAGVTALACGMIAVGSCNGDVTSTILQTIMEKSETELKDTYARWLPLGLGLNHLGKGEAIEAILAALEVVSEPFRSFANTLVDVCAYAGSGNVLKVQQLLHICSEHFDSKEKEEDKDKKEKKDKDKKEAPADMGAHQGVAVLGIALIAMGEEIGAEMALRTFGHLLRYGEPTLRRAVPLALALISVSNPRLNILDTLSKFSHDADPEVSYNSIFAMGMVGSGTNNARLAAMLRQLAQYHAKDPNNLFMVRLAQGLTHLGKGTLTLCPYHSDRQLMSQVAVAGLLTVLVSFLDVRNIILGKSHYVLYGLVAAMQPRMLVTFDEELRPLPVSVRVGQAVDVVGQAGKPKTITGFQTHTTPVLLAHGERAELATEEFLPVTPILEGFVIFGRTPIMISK

B1: GST alone (control) (other, UniProt P08515 1-218, looked up)
chain: MSPILGYWKIKGLVQPTRLLLEYLEEKYEEHLYERDEGDKWRNKKFELGLEFPNLPYYIDGDVKLTQSMAIIRYIADKHNMLGGCPKERAEISMLEGAVLDIRYGVSRIAYSKDFETLKVDFLSKLPEMLKMFEDRLCHKTYLNGDHVTHPDFMLYDALDVVLYMDPMCLDAFPKLVCFKKRIEAIPQIDKYLKSSKYIAWPLQGWQATFGGGDHPPK
notes: Control on glutathione-agarose beads
[1]
  binding result: no binding
[2]
  binding result: no binding
